Among the data in ChEMBL document CHEMBL3763031, “Design, synthesis and biological evaluation of monobactams as antibacterial agents against gram-negative bacteria” (2016) are MIC values, retold here.

The subject of experiment [1] is Pseudomonas aeruginosa. Conditions: PAO1.
The subject of experiment [2] is Pseudomonas aeruginosa. The settings on record: 27853.

What is called MIC is the lowest concentration found to suppress growth. Low readings indicate greater potency, high ones weaker potency. For the sequence GENTAMICIN, the MIC in experiment [1] and in experiment [2] was 0.5 µg/mL each time.
